For seven compounds, Log 1/Ki app results are on record in ChEMBL document CHEMBL1121828, “Quantitative structure-selectivity relationships. Comparison of the inhibition of Escherichia coli and bovine liver dihydrofolate reductase by 5-(substituted-benzyl)-2,4-diaminopyrimidines” (J Med Chem, 1981).

This experiment has as its target T1, Dihydrofolate reductase (Bos taurus) (UniProt P00376).
T1 sequence (whole entry): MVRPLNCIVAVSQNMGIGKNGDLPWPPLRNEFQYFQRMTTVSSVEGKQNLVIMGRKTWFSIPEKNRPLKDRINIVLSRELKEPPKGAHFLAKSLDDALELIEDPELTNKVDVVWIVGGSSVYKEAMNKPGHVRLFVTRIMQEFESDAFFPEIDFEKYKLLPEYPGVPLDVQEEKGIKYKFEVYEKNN

The structures appear in SMILES notation.

As to `CN(C)c1ccc(Cc2cnc(N)nc2N)cc1`, the Log 1/Ki app worked out at 4.76.

In turn, `COc1ccc(Cc2cnc(N)nc2N)cc1` returned a Log 1/Ki app of 4.92.

`Nc1ncc(Cc2cccc(Br)c2)c(N)n1`: the Log 1/Ki app came to 5.54.

`Nc1ncc(Cc2ccc(F)cc2)c(N)n1` yielded a Log 1/Ki app of 5.18.

`Nc1ncc(Cc2cccc(Cl)c2)c(N)n1` returned a Log 1/Ki app of 5.47.

On to `Nc1ncc(Cc2ccc([N+](=O)[O-])cc2)c(N)n1`, for which the Log 1/Ki app came out at 5.02.

`Nc1ncc(Cc2ccc(Br)cc2)c(N)n1`: the Log 1/Ki app was found to be 5.17.
